Data on one molecule can be found in patent US20110224276A1, “OPTICAL ISOMER OF PHENYLPROPIONIC ACID AND ITS MEDICINAL USE” (priority 2008, published 2011).

This test relates to hot plate pain threshold of mice. The test is described as follows: hot plate pain threshold of mice. As to conditions: 0.5 h after administration. Type of test: in vivo. Here is the method: On the basis of preliminary test, 90 healthy Kunming species of Mus musculus albus are selected, female, weight 18˜22 g, […], and each group of 10 mice, said tested groups comprising:
Each group of animals is pasted for 12 h, but drinking ad libitum. Mice are placed on a homoiothermal hot plate (55±0.5[…]), and the time of occurrence of licking foot is recorded as pain threshold. Appropriate mice (whose reaction time of pain is less than 60 seconds) are selected and randomly divided into groups, and pain thresholds are measured twice before administration and the average value is used as base pain threshold. At 0.5 h and 1 hour after intragastric administration of corresponding drugs, the pain threshold of each mouse is measured (if there are no reaction of pain in 60 seconds, then the threshold is considered as 60 second).
Using Microsoft EXCEL software, the average value of pain threshold of each tested group and the average value of control group are performed t-test analysis, and P<0.05 is considered as statistically significant difference.

`C[C@@H](C(=O)O)c1ccc2c(c1)CC(=O)c1ccccc1S2` [R, R-10,11-dihydro-alpha-methyl-10-oxo-dibenzo[b,f]tiazem-2-acetic acid]: the “pain threshold(s) 0.5 h” value runs as follows: (40 mg/kg ip) 20.0 ± 15.7 s; (80 mg/kg ig) 17.5 ± 15.7 s.
